Values of other authors in US9555077B2, “Methods of lowering body temperature by administration of desacyl ghrelin or its derivative” (UNIVERSITY OF MIYAZAKI, priority 2011, dated 2017).

Sequences of proteins named here, by UniProt entry; tags and fusion partners are left off.
UniProt Q92847, whole entry: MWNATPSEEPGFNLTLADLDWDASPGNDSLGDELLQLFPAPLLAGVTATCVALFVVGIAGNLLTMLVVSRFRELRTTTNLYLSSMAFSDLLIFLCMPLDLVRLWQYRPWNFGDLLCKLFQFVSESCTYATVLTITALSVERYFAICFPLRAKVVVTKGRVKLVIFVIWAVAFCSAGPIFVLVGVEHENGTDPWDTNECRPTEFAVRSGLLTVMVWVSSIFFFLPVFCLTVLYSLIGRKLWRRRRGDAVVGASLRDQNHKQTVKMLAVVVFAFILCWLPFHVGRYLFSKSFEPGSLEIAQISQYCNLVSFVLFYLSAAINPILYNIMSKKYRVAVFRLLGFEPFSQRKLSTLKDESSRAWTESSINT

Target: GHS-R1a (Homo sapiens, UniProt Q92847)
Settings: Broglio et al. 2004; cited from earlier work

desacyl ghrelin
affinity to GHS-R1a: almost no affinity
